# Target: CB1 (Homo sapiens, UniProt P21554)
# Protein sequences, listed by entry. Tags and fused reporters are not part of them.
# UniProt P21554, whole entry: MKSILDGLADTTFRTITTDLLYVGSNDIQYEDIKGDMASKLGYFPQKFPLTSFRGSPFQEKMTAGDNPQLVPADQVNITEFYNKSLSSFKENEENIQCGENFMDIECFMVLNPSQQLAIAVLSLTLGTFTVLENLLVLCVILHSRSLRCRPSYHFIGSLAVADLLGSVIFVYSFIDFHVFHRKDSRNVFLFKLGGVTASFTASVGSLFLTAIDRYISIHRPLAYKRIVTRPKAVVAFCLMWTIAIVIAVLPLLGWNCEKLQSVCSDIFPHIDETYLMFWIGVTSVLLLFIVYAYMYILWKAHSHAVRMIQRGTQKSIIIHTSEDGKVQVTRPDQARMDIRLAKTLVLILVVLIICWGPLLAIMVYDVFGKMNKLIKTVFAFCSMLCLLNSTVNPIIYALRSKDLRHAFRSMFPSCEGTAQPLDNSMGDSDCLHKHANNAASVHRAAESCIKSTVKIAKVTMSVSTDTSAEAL
# Test: Radioligand displacement of [3H]CP55940 at CB1
# Settings: ratio of Ki CB2 to Ki CB1, [3H]CP55940
smiles,measurement,value
Cc1c(C(=O)NCC2CCC(CNS(N)(=O)=O)CC2)nn(-c2ccc(Cl)cc2Cl)c1-c1ccc(Cl)cc1 (stereo not shown) [Compound 8],CB2:CB1 ratio,17

# From article PMC3319116 (Journal of Medicinal Chemistry, 2012)
